Measurements taken from PubChem BioAssay AID1467 (National Center for Advancing Translational Sciences (NCATS), 2008).
Only a part is listed here, and it is no random draw. Some results for these compounds are left out of this collection, so the calls shown say nothing about other tests. Calls of active or inactive are those of the source. Calls come from the whole dose curve; as a rule, active = well fitted curve in the direction sought with a large enough effect; inconclusive = small, poorly fitted or top-dose-only effect, or effect the other way, or another doubt; inactive = no such curve, though single readings can be large or run the other way.

The chains behind the UniProt entries cited, without tags or fusion partners.
UniProt P06280, whole entry: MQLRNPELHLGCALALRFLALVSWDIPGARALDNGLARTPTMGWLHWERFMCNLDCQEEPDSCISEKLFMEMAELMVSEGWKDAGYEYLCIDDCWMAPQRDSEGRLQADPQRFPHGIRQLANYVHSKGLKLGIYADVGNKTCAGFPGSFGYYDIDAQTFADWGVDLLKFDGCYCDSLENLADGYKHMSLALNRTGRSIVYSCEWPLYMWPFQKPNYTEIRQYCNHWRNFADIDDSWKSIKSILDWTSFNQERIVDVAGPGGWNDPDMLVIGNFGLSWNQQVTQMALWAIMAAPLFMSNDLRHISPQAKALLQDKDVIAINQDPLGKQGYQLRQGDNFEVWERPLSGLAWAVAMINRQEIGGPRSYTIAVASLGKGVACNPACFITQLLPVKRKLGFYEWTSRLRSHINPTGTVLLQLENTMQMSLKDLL

What follows are compounds tested against Alpha-galactosidase A (Homo sapiens) (UniProt P06280) (assay: qHTS Assay for Inhibitors of Human alpha-Galactosidase at pH 4.5.). Conditions: purified enzyme, 4-MU-alpha-Gal fluorescence; at 105 µM (top of the series).
From the text: NIH Chemical Genomics Center [NCGC]
NIH Molecular Libraries Probe Production centers Network [MLPCN]
Assay Submitter (PI): Wei Zheng
Alpha-galactosidase is a homodimeric glycoprotein that hydrolyzes the terminal alpha-galactosyl moieties from glycolipids and glycoproteins. Deficiency of this enzyme results in Fabry Disease with progressive accumulation of globotriaosylceramide and other glycosphingolipids in vascular endothelial cells that causes renal failure, myocardial infarction and stroke, and premature death in patients. It has been reported that the improper folding and trafficking of alpha-galactosidase resulting from the genetic mutations may account for a significant numbers of Fabry patients. […] We optimized this alpha-galactosidase assay in 1536-well plate format for identifying the novel small molecule inhibitors with the structures other than the sugar analogs in order to develop the new pharmacological chaperones. Although this assay has the same protocol as PubChem AID 992, this is a separate project and, therefore, is published as a separate assay
NCGC Assay Protocol Summary:
This is a fluorogenic enzyme assay with 4-Methylumbelliferyl alpha-D-galactopyranoside as the substrate and human […] as the enzyme preparation. Upon the hydrolysis of this fluorogenic substrate, the resulting product, […]. 4-Methyllumbelliferone, can be excited at 365 nm and emits at 440 nm. This fluorescence which can be detected by a standard fluorescence plate reader. Data were normalized to the controls for basal activity (without enzyme) and 100% activity (with enzyme). In the AC50 values were determined from concentration-response data modeled with the standard Hill equation.
Assay buffer: 50 mM citric acid (titrated with potassium phosphate to pH 4.5), 0.005% Tween-20, pH 4.5. (pH 4.5 is an optimal condition for this enzyme assay)
1536-well assay protocol for the human alpha-galactosidase:
(1) Add 2 ul/well of enzyme (12 nM final)
(2) Add 23 nL compounds in DMSO solution. The final titration was 0.7 nM to 77 uM.
(3) Add 1 ul of substrate (400 uM final)
(4) Incubate at room temperature for 20 min.
(5) Add 2 ul stop solution (1M NaOH and 1M Glycine mixture, pH 10)
(6) Detect the assay plate in a ViewLux plate reader (PerkinElmer) with Ex=365 nm and Em=440nm.
Keywords: MLSMR, MLPCN, NIH Roadmap, qHTS, NCGC, : Alpha-galactosidase, Fabry Disease, pharmacological chaperone, chaperone therapy
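Note: 0% = full activity with enzyme and -100% = basal without enzyme.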

| SMILES | activity change, negative = inhibition |
| --- | --- |
| C=CCN1CCN(CCOC(=O)C(O)(c2ccccc2)c2ccccc2)CC1 | inactive: 4.81% |
| CCN1CCCC(OC(=O)C2(O)c3ccccc3C=Cc3ccccc32)C1 (stereo unspecified) | inactive: 1.24% |
| CN(C)C1CCCC1OC(=O)C(O)(c1ccccc1)c1ccccc1 (stereo unspecified) | inactive: 0.64% |
| Cc1ccccc1C(=O)NCC1(N2CCCCC2)CCCCC1 | inactive: -6.99% |
| CC(C)N1C(=O)CC2(CCN(CCOC(=O)C(O)(c3ccccc3)c3ccccc3)CC2)C1=O | inactive: -1.35% |
| CCN(CC)CC(C)C(C)OC(=O)C(O)(c1ccccc1)c1ccccc1 (stereo unspecified) | inactive: -6.47% |
| O=C(NCC1(N2CCCCC2)CCCCC1)c1cc([N+](=O)[O-])ccc1Cl | inactive: -11.7% |
| COc1ccc(Br)c(C(=O)NCC2(N3CCCCC3)CCCCC2)c1 | inactive: -5.42% |
| CN(C)c1cccc(C(=O)NCC2(N(C)C)CCCCC2)c1 | inactive: -1.89% |
| O=C(OC1CN2CCC1CC2)C(CO)(c1ccccc1)c1ccccc1 (stereo unspecified) | inactive: 8.31% |
| COc1cccc(C(=O)NCC2(N3CCCCC3)CCCCC2)c1 | inactive: -28% |
